# Laboratory results taken from patent US5462954A, “Substituted phenyl phenol leukotriene antagonists” (Eli Lilly and Company, priority 1994, dated 1995).
# By UniProt entry, the sequences of proteins in these tests, tags left out. Residues count along the entry.
# UniProt H0VYV8, 1-348: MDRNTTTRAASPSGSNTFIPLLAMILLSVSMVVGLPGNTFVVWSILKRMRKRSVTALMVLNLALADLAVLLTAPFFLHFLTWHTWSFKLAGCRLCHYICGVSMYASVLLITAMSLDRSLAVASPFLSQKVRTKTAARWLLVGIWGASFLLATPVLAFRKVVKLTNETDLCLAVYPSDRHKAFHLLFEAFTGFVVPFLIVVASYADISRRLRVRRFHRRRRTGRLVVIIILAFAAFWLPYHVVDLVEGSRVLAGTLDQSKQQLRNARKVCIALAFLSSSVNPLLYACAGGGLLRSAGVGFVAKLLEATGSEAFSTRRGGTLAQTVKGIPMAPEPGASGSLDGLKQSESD
# Counter-ions that a name gives are not always drawn.
# Target: binding of tritiated LTB4 to guinea pig lung membranes (Cavia porcellus, UniProt H0VYV8)
# Test: biochemical
# Settings: read-out: pKi (mean -log Ki) (converted)
compound,measurement,value
CCc1cc(-c2cc(Cl)cc(Cl)c2)c(O)cc1OCCCCCC(C)(C)c1nn[nH]n1 [monosodium salt],Ki,26.3 nM
